EP4831176A1, “BICYCLIC FUSED HETEROAROMATIC RING DERIVATIVE, AND PHARMACEUTICAL COMPOSITION AND USE THEREOF” (dated 2026)

Chains of the proteins cited; added tags and fusions are not shown.
UniProt O75530, whole entry: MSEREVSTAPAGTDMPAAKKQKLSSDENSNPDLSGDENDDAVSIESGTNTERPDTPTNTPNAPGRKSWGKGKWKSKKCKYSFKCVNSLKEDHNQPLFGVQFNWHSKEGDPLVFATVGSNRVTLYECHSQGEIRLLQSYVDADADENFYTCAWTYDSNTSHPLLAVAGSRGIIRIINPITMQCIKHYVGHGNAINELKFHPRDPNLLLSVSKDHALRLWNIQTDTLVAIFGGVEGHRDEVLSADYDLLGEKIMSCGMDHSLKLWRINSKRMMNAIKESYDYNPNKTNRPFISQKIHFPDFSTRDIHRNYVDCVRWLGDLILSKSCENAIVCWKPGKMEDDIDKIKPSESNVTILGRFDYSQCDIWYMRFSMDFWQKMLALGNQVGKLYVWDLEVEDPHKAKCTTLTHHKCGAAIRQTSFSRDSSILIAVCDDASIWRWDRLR

Key:
Pfeiffer cells = assay: Proliferation inhibition of Pfeiffer tumor cells, Cell Titer-Glo; conditions: read-out: CTG IC50, 144 hours incubation
Source text: In this experiment, Cell Titer-Glo reagent was used to quantitatively analyze the proliferation activity of Pfeiffer cells to detect the inhibitory ability of the compounds on tumor cell proliferation. The specific steps were as follows: • 1. Pfeiffer cells were purchased from Nanjing Cobioer (purchased from ATCC, Catalog No. #CRL2632), subcultured and maintained in logarithmic growth state using RPMI-1640 complete medium (containing 10% v/v fetal bovine serum) according to the supplier's recommended conditions. […] Before cell seeding, cells were collected in a centrifuge tube, centrifuged at 250 rcf for 3 minutes, and the culture medium was discarded. The cells were resuspended in fresh complete medium, and 20 µL of the cell suspension was taken to calculate the cell concentration using a Countstar cell counter. After adjusting the density, cells were seeded into a 384-well plate at 2,000 cells/45 µL and pre-incubated in a 37°C, 5% CO2 incubator for 4 hours. • 3. The negative and positive control groups were treated with 5 µL of control solution (non-complete medium containing 1% v/v DMSO). Compound gradient dilutions were prepared using non-complete medium, and 5 µL of the dilutions were added to the corresponding culture wells. The final concentration of DMSO in the test was 0.1% v/v. Subsequently, the plate was incubated in a 37°C, 5% CO2 incubator for 144 hours. • 4. 40 µL of Cell Titer-Glo reagent was added directly to the cell culture, and the plate was incubated at room temperature in the dark for 30 minutes. The luminescence value was then read on a plate reader, and the results were used to analyze the cell proliferation ratio and compound activity. • 5. The signal value of the negative control group was set as Bottom, and the signal value of the positive control group was set as Top. The compound concentration value (logarithm) was the X-axis, and the luminescence reading at the corresponding concentration was the Y-axis, with HillSlope as the slope factor. A four-parameter logistic model (4PL logistic model) was used for fitting, and the calculation method was as follows:Y = Bottom + (Top - Bottom) / (1 + 10^((Log IC50 - X) × HillSlope))
After fitting, the IC50 value of the compound was calculated, and the proliferation inhibitory activity of the compound was compared based on the IC50 value.

EED protein = EED protein (Homo sapiens, UniProt O75530); assay: EED protein degradation in Karpas-422 cells, In-cell western (ICW); conditions: 18 hours incubation
Source text: In this experiment, In-cell western (ICW) method was used to quantitatively analyze the EED protein expression level in Karpas-422 cells to detect the degradation activity of the compounds on the target protein. The specific steps were as follows: • 1. Karpas-422 cells were purchased from Nanjing Cobioer (Catalog No. CBP60629), subcultured and maintained in logarithmic growth state using RPMI-1640 complete medium (containing 10% v/v fetal bovine serum) according to the supplier's recommended conditions. […] One day before cell seeding, a 384-well plate was coated with 30 µL of coating buffer (phosphate buffered saline containing 30 µg/mL poly-D-lysine) at room temperature for 2 hours. The coating solution was then discarded, and the plate was washed once with 90 µL of phosphate buffered saline, which was then discarded. The plate was allowed to air dry naturally in a clean bench, wrapped around the edges with Parafilm to prevent moisture, and stored in a 4°C refrigerator until use. • 3. Before cell seeding, cells were collected in a centrifuge tube, centrifuged at 250 rcf for 3 minutes, and the culture medium was discarded. The cells were resuspended in fresh complete medium, and 20 µL of the cell suspension was taken to calculate the cell concentration using a Countstar cell counter. After adjusting the density, cells were seeded into the prepared coated plate at 15,000 cells/45 µL and pre-incubated in a 37°C, 5% CO2 incubator for 4 hours. • 4. The negative and positive control groups were treated with 5 µL of control solution (serum-free medium containing 1% v/v DMSO). Compound gradient dilutions were prepared using the control solution, and 5 µL of the dilutions were added to the corresponding culture wells. The final concentration of DMSO in the test was 0.1% v/v. Subsequently, the plate was incubated in a 37°C, 5% CO2 incubator for 18 hours. • 5. The culture plate was removed, and cells were fixed by directly adding 10 µL of fixative solution (phosphate buffered saline containing 3% v/v glutaraldehyde) to the cells and incubating at room temperature for 30 minutes. The liquid was discarded. Subsequently, cells were treated with 30 µL of permeabilization staining solution (phosphate buffered saline containing 0.1% v/v Triton X-100 and 20 µg/mL Hoechst 33342) at room temperature for 30 minutes. The permeabilization solution was discarded, and the fluorescence value (excitation at 360 nm, emission at 460 nm) was read on a microplate reader. • 6. 50 µL of repair solution (50 mM citric acid buffer) was added to all wells, and the plate was incubated at 70°C for 2 hours on a constant temperature incubation shaker. The microplate was then removed, equilibrated to room temperature, and the liquid was discarded. • 7. A sufficient amount of antibody dilution buffer (Tris Buffered Saline-Tween solution containing 1% w/v bovine serum albumin) was prepared and stored in a 4°C refrigerator until use. • 8. Primary antibody dilution (EED antibody diluted 1:1000 with antibody dilution buffer) was prepared. 30 µL of antibody dilution buffer without antibody was added to the negative control group. 30 µL of the primary antibody dilution was added to the cells in the other groups, and the plate was incubated overnight at 4°C. • 9. The primary antibody dilution was discarded. The plate was washed 3 times with 90 µL of Tris Buffered Saline-Tween solution, and the wash solution was discarded. Secondary antibody dilution (HRP-linked antibody diluted 1:500 with antibody dilution buffer) was prepared, and 30 µL was added to the cells. The plate was incubated at room temperature for 2 hours. • 10. The secondary antibody dilution was discarded. The plate was washed 3 times with 90 µL of Tris Buffered Saline-Tween solution, and the wash solution was discarded. 30 µL of TMB substrate solution was added, and the plate was incubated at room temperature in the dark for 15 minutes. Then, 30 µL of stop solution (2 M sulfuric acid) was added to terminate the reaction. […]

| IC50 (Pfeiffer cells) [nM] | Dmax (EED protein) [%] | SMILES |
| --- | --- | --- |
| < 0.03 | 62 | Cn1nc(C2CCC(=O)NC2=O)c2ccc(N3CCC(CN4CCC(n5cnc(-c6cnc(NCc7c(F)ccc8c7CCO8)n7cnc(Cl)c67)n5)CC4)CC3)cc21 (stereo not shown) |
| 0.7 | 72 | Cc1nc(C2CCN(CC3CCN(c4ccc5c(C6CCC(=O)NC6=O)nn(C)c5c4)CC3)CC2)ccc1-c1cnc(NCc2c(F)ccc3c2CCO3)n2cnnc12 (stereo not shown) |
| < 0.03 | 65 | O=C1CCC(Nc2ccc(N3CCN(C4CCN(Cc5ncc(-c6cnc(NCc7c(F)ccc8c7CCO8)n7cnc(Cl)c67)cn5)CC4(F)F)CC3)c(F)c2)C(=O)N1 (stereo not shown) |
| 1 | 67 | Cn1nc(C2CCC(=O)NC2=O)c2ccc(N3CCC(CN4CCC(c5cnc(-c6cnc(NCc7c(F)ccc8c7CCO8)n7cnc(Cl)c67)cn5)CC4)CC3)cc21 (stereo not shown) |
| 0.9 | 68 | Cn1nc(C2CCC(=O)NC2=O)c2ccc(N3CCC(CN4CCC(n5cc(-c6cnc(NCc7c(F)ccc8c7CCO8)n7cnc(F)c67)cn5)CC4)CC3)cc21 (stereo not shown) |
| 0.5 | 64 | Cn1nc(C2CCC(=O)NC2=O)c2cc(F)c(N3CCC(CN4CCC(n5cc(-c6cnc(NCc7c(F)ccc8c7CCO8)n7cnc(Cl)c67)cn5)CC4)CC3)cc21 (stereo not shown) |

The remaining lines, values behind:

| SMILES | IC50 (Pfeiffer cells) [nM] | Dmax (EED protein) [%] |
| --- | --- | --- |
| Cn1nc(C2CCC(=O)NC2=O)c2ccc(N3CCC(CN4CCC(c5ccc(-c6cnc(NCc7c(F)ccc8c7CCO8)n7cnc(Cl)c67)nc5)CC4)CC3)cc21 (stereo not shown) | 0.7 | 71 |
| Cn1nc(C2CCC(=O)NC2=O)c2ccc(N3CCC(CN4CCC(n5cc(-c6cnc(NCc7c(F)ccc8c7CCO8)n7cc(C#N)nc67)cn5)CC4)CC3)cc21 (stereo not shown) | 1 | 59 |
| Cn1nc(C2CCC(=O)NC2=O)c2ccc(N3CCC(CN4CCC(c5ccc(-c6cnc(NCc7c(F)ccc8c7CCO8)n7cnc(F)c67)cc5)CC4)CC3)cc21 (stereo not shown) | 4 | 74 |
| Cc1nc(C2CCN(CC3CN(c4ccc5c(C6CCC(=O)NC6=O)nn(C)c5c4)C3)CC2)ccc1-c1cnc(NCc2c(F)ccc3c2CCO3)n2cnc(Cl)c12 (stereo not shown) | 0.3 | 68 |
| Cn1nc(C2CCC(=O)NC2=O)c2ccc(N3CCC(CN4CCC(c5ccc(-c6cnc(NCc7c(F)ccc8c7CCO8)n7cnnc67)cc5)CC4)CC3)cc21 (stereo not shown) | 0.2 | 74 |
| O=C1CCC(N2Cc3cc(N4CCC(CN5CCC(n6cc(-c7cnc(NCc8c(F)ccc9c8CCO9)n8cnc(Cl)c78)cn6)CC5)CC4)ccc3C2=O)C(=O)N1 (stereo not shown) | 0.2 | 68 |
| Cn1nc(C2CCC(=O)NC2=O)c2ccc(N3CCC(CN4CCC(n5cc(-c6cnc(NCc7c(F)ccc8c7CCO8)n7cnc(Cl)c67)cn5)CC4)CC3)nc21 (stereo not shown) | 0.4 | 67 |
| Cn1nc(C2CCC(=O)NC2=O)c2ccc(N3CCC(CN4CCC(n5cc(-c6cnc(NCc7c(F)ccc8c7CCO8)n7cnnc67)cn5)CC4)CC3)cc21 (stereo not shown) | 1.5 | 61 |
| Cn1nc(C2CCC(=O)NC2=O)c2ccc(N3CCC(CN4CCC(c5ccc(-c6cnc(NCc7c(F)ccc8c7CCO8)n7cnc(Cl)c67)cc5)CC4)CC3)cc21 (stereo not shown) | 9 | 55 |
| Cn1nc(C2CCC(=O)NC2=O)c2ccc(N3CCC(CN4CCC(c5ccc(-c6cnc(NCc7c(F)ccc8c7CCO8)n7cnc(Cl)c67)nn5)CC4)CC3)cc21 (stereo not shown) | 0.9 | 64 |
| Cn1nc(C2CCC(=O)NC2=O)c2ccc(N3CCC(CN4CCC(c5ncc(-c6cnc(NCc7c(F)ccc8c7CCO8)n7cnc(Cl)c67)cn5)CC4)CC3)cc21 (stereo not shown) | 0.4 | 65 |
| Cn1nc(C2CCC(=O)NC2=O)c2ccc(N3CCC(CN4CCC(n5cc(-c6cnc(NCc7c(F)ccc8c7CCO8)n7cnc(Cl)c67)cn5)CC4)CC3)cc21 (stereo not shown) | < 0.1 | 73 |
| Cn1nc(C2CCC(=O)NC2=O)c2ccc(N3CC4(CC(CN5CCC(n6cc(-c7cnc(NCc8c(F)ccc9c8CCO9)n8cnc(Cl)c78)cn6)CC5)C4)C3)cc21 (stereo not shown) | 1.4 | 57 |
| Cn1nc(C2CCC(=O)NC2=O)c2ccc(N3CCC(CN4CCC(n5cc(-c6cnc(NCc7c(F)ccc8c7CCO8)n7cnc(Cl)c67)c(F)n5)CC4)CC3)cc21 (stereo not shown) | 2 | 62 |
